Experiment: Particle size distribution by laser diffraction (Sympatec, Fraunhofer mode)
Assay type: physicochemical
[1] = Example 4, Table 2, micronized API
[2] = Example 9, Table 9, primary particle size
[3] = Example 10, Table 11, Triple GFM primary particle size
[4] = Example 10, Table 12, Triple TFM primary particle size

Row | d10 (μm) [1] | d50 (μm) [1] | d90 (μm) [1] | ×10 (μm) [2] | ×50 (μm) [2] | ×90 (μm) [2] | d10 (μm) [3] | d50 (μm) [3] | d90 (μm) [3] | d10 (μm) [4] | d50 (μm) [4] | d90 (μm) [4] | d10 (μm) (Example 11, Table 14) | d50 (μm) (Example 11, Table 14) | d90 (μm) (Example 11, Table 14) | Compound
1 | 0.6 μm | 1.9 μm | 4.4 μm |  |  |  |  |  |  |  |  |  |  |  |  | COc1ccc(C[C@@H](C)NC[C@H](O)c2ccc(O)c(NC=O)c2)cc1 (racemic) [Coarse FF API, (±)-2-hydroxy-5-[(1RS)-1-hydroxy-2-[[(1RS)-2-(4-methoxyphenyl)-1-methylethyl]-amino]ethyl]formanilide]
2 |  |  |  | 0.6 μm | 1.9 μm | 4.1 μm | 0.5 μm | 1.4 μm | 2.7 μm | 0.6 μm | 1.9 μm | 4.1 μm | 0.6 μm | 1.9 μm | 4.1 μm | COc1ccc(C[C@@H](C)NC[C@H](O)c2ccc(O)c(NC=O)c2)cc1 (racemic) [FF API, (±)-2-hydroxy-5-[(1RS)-1-hydroxy-2-[[(1RS)-2-(4-methoxyphenyl)-1-methylethyl]-amino]ethyl]formanilide]
3 | 0.5 μm | 1.3 μm |  |  |  |  |  |  |  |  |  |  |  |  |  | COc1ccc(C[C@@H](C)NC[C@H](O)c2ccc(O)c(NC=O)c2)cc1 (racemic) [Fine FF API, (±)-2-hydroxy-5-[(1RS)-1-hydroxy-2-[[(1RS)-2-(4-methoxyphenyl)-1-methylethyl]-amino]ethyl]formanilide]

— patent US9415009B2 (Pearl Therapeutics, Inc., priority 2009, dated 2016)
